Ki data for one compound are collected here from patent US5264565A, “Nucleic acid encoding the D2 /Ml chimeric receptor” (Affymax Technologies, N.V., priority 1991, dated 1993).

The chains behind the UniProt entries cited, without tags or fusion partners. Residues count along the entry.
UniProt P14416, 1-414 isoform P14416-2: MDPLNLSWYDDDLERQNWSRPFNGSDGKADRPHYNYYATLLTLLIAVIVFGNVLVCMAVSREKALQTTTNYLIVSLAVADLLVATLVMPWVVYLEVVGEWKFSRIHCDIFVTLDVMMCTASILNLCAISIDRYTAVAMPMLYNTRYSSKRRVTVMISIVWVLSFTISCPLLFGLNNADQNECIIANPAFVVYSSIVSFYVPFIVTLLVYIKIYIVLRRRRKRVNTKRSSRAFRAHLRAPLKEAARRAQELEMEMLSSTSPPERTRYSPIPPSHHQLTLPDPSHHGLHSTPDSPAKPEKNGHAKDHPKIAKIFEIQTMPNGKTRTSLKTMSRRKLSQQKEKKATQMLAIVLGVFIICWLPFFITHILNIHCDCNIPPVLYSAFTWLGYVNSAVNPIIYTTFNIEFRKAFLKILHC

For orientation: Ki means the dissociation constant of the complex between target and ligand, obtained from inhibition or displacement. Read a low Ki as higher affinity.

The target of the experiment is D2(414) receptor (Homo sapiens, UniProt P14416). The experiment in a line: Competition binding assay with [3H]-spiperone, D2(414) receptor. The following applies: 0.5 nM [3H]-spiperone, anti-log of mean log Ki, three experiments, Cheng-Prusoff. Also on record: expressed in transfected cells.

Each structure is given as a SMILES string.

As for `CCCN(CCc1ccccc1)C1CCc2c(O)cccc2C1` (stereo not shown) [N-0434], the affinity, expressed as Ki, was 21 nM.
